Reference: PMC9640981, “Plant vernalization proteins contain unusual PHD superdomains without histone H3 binding activity” (The Journal of Biological Chemistry, 2022)

How the values were obtained:
[1] = test system: VIN3PHD; conditions: pull-down assays; Arabidopsis VIN3 PHD / VEL PHD modules; cited from earlier work
Excerpt: A classical PHD signature motif is also found in plant VEL proteins ([18]). During vernalization, VEL proteins associate with Polycomb Repressive Complex 2 and are required for epigenetic silencing of the Arabidopsis FLOWERING LOCUS C (FLC) ([19]). […] Since we expected the OBE PHD superdomain to bind to H3K4me peptides, based on its architecture and negative surface charge, we used ITC to assay purified PHD superdomain from Arabidopsis OBE1 (OBE1_193-272) for its binding to H3K4me2.

[2] = test system: Pd VIN3_123-326; assay: ITC binding to Pd VIN3 PHD superdomain; parameters: species or system Phoenix dactylifera; conditions: for binding of phosphorylated peptides (in words): VIN3_123-326, E. F.-E., unpublished
Method: (§1) VIN3_123-326 from P. dactilyfera was amplified by PCR from synthetic codon optimized genes (gBlocks, Integrated DNA Technologies) and subcloned into pEC-LIC-His-3C (kindly provided by Jurg Muller) containing a hexahistidine tag and a 3C protease cleavage site at the N terminus. VIN3_123-326 was expressed and purified as described previously for VIN3_150-208. In this case, after 3C cleavage overnight, the sample was loaded on a HiLoad 26/600 Superdex 200 pg column (GE Healthcare) in 25 mM Tris pH 8, 150 mM NaCl, and 1 mM DTT.
ITC was carried out at 25 °C with an iTC 200 Microcalorimeter (GE Healthcare) in 25 mM Tris pH 8, 150 mM NaCl, and 1 mM DTT. Titrations consisted of 19 consecutive 2 μl injections of 0.25 to 1 mM peptide solution (following a preinjection of 0.5 μl) into 50 μM protein (VIN3PHD, VIN3_123-326, VIN3_116-307, OBE1_193-372, or pVP13 VIN3_130-299) at time intervals of 120 s. ITC data were analyzed using MicroCal PEAQ-IT Analysis Software (Malvern Sciences).

[3] = test system: ^15N-labeled Pd VIN3_123-326; assay: NMR (BEST-TROSY) binding of histone H3 peptides to Pd VIN3 PHD superdomain; parameters: species or system Phoenix dactylifera; conditions: NMR 600 MHz; 50 μM ^15N-labeled VIN3_123-326 + 0.5 mM peptide, 25 mM Tris pH 8, 150 mM NaCl, 1 mM DTT, >30 min
Method: as §1
For NMR spectroscopy, A. thaliana VIN3_150-208 and P. dactilyfera VIN3_123-326 were expressed in M9 minimal medium supplemented with 0.4% glucose, antibiotics, trace elements, 25 ml overnight culture, and 2 g of ^15N-H4Cl per liter of expression culture. Cultures were grown and processed essentially as described before. NMR samples containing 50 μM ^15N-labeled VIN3_150-208 or VIN3_123-326 were prepared in aqueous buffer (25 mM Tris pH 8, 150 mM NaCl, and 1 mM DTT). The 50 μM ^15N-labeled VIN3_150-208 or VIN3_123-326 was incubated with 0.5 mM histone H3 peptides resuspended in 25 mM Tris pH 8, 150 mM NaCl, and 1 mM DTT for >30 min before measurement. Spectra were recorded on a Bruker Avance-III spectrometer operating at 600 MHz ^1H frequency and equipped with a 5 mm inverse detection cryogenic probe. […]

H3K9me2 (1–15): methylated histone H3 tail peptide, residues 1–15
binding to VEL/VIN3 PHD finger, previous reports (in words) [1]: strongly positive | binding (in words) ([2]; 25 °C, 25 mM Tris pH 8, 150 mM NaCl, 1 mM DTT, 0.25 to 1 mM peptide into 50 μM Pd VIN3_123-326): unable to detect binding

H3S10p (1–15): histone H3 peptide phosphorylated at serine 10
binding / perturbation of BEST-TROSY spectra (in words) [3]: equally negative | binding of phosphorylated peptides (in words) [2]: equally negative

H3T3p (1–15): histone H3 peptide phosphorylated at threonine 3
binding / perturbation of BEST-TROSY spectra (in words) [3]: equally negative | binding of phosphorylated peptides (in words) [2]: equally negative
